In ChEMBL document CHEMBL1121425, “4-Amino-4-arylcyclohexanones and their derivatives, a novel class of analgesics. 1. Modification of the aryl ring” (1980):

How the values were obtained:
Mus musculus [1] = species on record: Mus musculus; assay: Tested for analgesic activity using tail flick assay in mice
Mus musculus [2] = species on record: Mus musculus; assay: Tested for analgesic activity using tail pinch assay in mice
Mus musculus [3] = species on record: Mus musculus; assay: Tested for analgesic activity using HCl writhe assay in mice in mice
Mus musculus [4] = species on record: Mus musculus; assay: Tested for sedation using inclined screen test in mice
Mus musculus [5] = assay: Tested for narcotic antagonistic property using tail-flick procedure in mice after giving subcutaneous dose of 6.3 mg/kg of morphine sulphate

Structure (SMILES): COc1ccc(C2(N(C)C)CCC(=O)CC2)cc1
- ED50 (Mus musculus [1]): 19 mg/kg
- ED50 (Mus musculus [2]): 20 mg/kg
- ED50 (Mus musculus [3]): 19 mg/kg

Structure (SMILES): CN(C)C1(c2ccc(Br)cc2)CCC(=O)CC1
- ED50 (Mus musculus [4]): > 100 mg/kg
- ED50 (Mus musculus [5]): > 100 mg/kg

Structure (SMILES): CN(C)C1(c2ccccc2)CCC(=O)CC1
- ED50 (Mus musculus [1]): 71 mg/kg
- ED50 (Mus musculus [2]): 66 mg/kg
- ED50 (Mus musculus [3]): 44 mg/kg

Structure (SMILES): CN(C)C1(c2ccc(Cl)c(Cl)c2)CCC(=O)CC1
- ED50 (Mus musculus [1]): 63 mg/kg
- ED50 (Mus musculus [2]): 63 mg/kg
- ED50 (Mus musculus [3]): > 100 mg/kg
